Laboratory results reported in ChEMBL document CHEMBL3714768, “Tautomycetin and Tautomycetin analog biosynthesis” (2012).

Assays:
[1] = Selectivity index, ratio of IC50 for purified human red blood cell PP2A (unknown origin) to IC50 for purified rabbit skeletal muscle PP1
[2] = tested on: MCF7; test: Cytotoxicity against human MCF7 cells by fluorescent Calcein-AM assay; type: functional, cell-based
[3] = Cytotoxicity against human HCT116 cells by fluorescent Calcein-AM assay; type: functional, cell-based; settings: HCT-116
[4] = Cytotoxicity against human DU145 cells by fluorescent Calcein-AM assay; type: functional, cell-based; settings: DU-145

Row | Structure (SMILES) | Ratio IC50 [1] | IC50 [2] | IC50 [3] | IC50 [4]
1 | CCC(/C=C/C(=O)O)=C\C(=O)C[C@H](C)C[C@@H](C)CC[C@H](O)[C@H](C)C(=O)C[C@@H](O)[C@H](C)[C@@H](C)OC(=O)C[C@@H](O)C1=C(C)C(=O)OC1=O | 3.3 | – | – | –
2 | C=C/C(=C/C(=O)C[C@H](C)C[C@@H](C)CC[C@H](O)[C@H](C)C(=O)C[C@@H](O)[C@H](C)[C@@H](C)OC(=O)C[C@@H](O)C1=C(C)C(=O)OC1=O)CC | – | 8.9 µM | 6.8 µM | 5.2 µM
